Our source for the IC50 values is BindingDB's records for patent US11174250 (Propellon Therapeutics, 2021).

pIC50: −log10 of the molar value.

This assay has as its target T1, P61964[22-334]/Q03164[3745-3969]/Q15291/Q9C005/Q9UBL3[2-534] (Homo sapiens, UniProt P61964).
T1 construct: 3745-3969; 2-534
In words: MLL1-WRAD2 Enzyme Assay. As for the experimental part: Reaction was initiated with 1 μM 3H-SAM and incubated for 1 hour at 30° C. Reaction mixture was transferred to P81 filter-paper and washed with PBS before detection.

The compound `CN1CCN(c2c(F)cc(-c3cc(CN4CCOCC4)ccc3F)cc2NC(=O)c2c[nH]c(=O)cc2C(F)(F)F)CC1` [US11174250, Example 98] gave a pIC50 of 4.40.

In general, pIC50 refers to −log10 of the IC50, conventionally taken in molar units. High values mean a low IC50, low ones a high IC50.
